In paper PMC4403811, “Efficient Cargo Delivery into Adult Brain Tissue Using Short Cell-Penetrating Peptides” (PLoS ONE, 2015):

Experiments:
[1] = tested on: adult zebrafish brain (telencephalon)
Method: (§1) Cerebroventricular microinjections (CVMI) were executed as described in [7, 8]. Fish were anesthetized using MESAB (0.01%) and an incision placed above the optic tectum with a fine needle (Becton Dickinson Biosciences). Through this hole a glass capillary is inserted and the liquid disperses evenly throughout the cerebroventricular fluid upon high pressure injection.
(§2) Fish were sacrificed 1 day post injection and heads fixed over night at 4°C in 2% PFA. Thereafter heads were transferred to 20% Sucrose-EDTA in […] phosphate buffer, pH 7.5. For cryosectioning embedding in Sucrose(20%)-Gelatine (7.5%) on dry ice was done and heads stored at -80°C. 12 μm cryosections were cut using a cryostat microtome and stored at -20°C.
TUNEL stainings of sections were carried out using the ApoTag Red In Situ apoptosis Detection Kit (Chemicon International). Stainings were performed according to manufacturer’s instructions and positive and negative controls were included.
Images were acquired using an inverted Zeiss AxioImager Z1. Only sections between the caudal end of the olfactory bulb and anterior commissure were counted. The quantification of the average translocation range was done using the AxioVision free hand surface area measurement tool. The area showing anti-fluorescein staining in the left hemisphere was measured against the total this telencephalic hemisphere, based on color thresholds against control images. The statistical evaluation was performed using GraphPad Prism (Version 6.02) for one-way ANOVA followed by a Tukey’s post-hoc test and for Student’s T-Test. Error bars shown are the s.e.m. and asterisks indicate significance according to: *: p0.05, **: p0.01, ***: p0.001. p>0.05 is considered not significant.

[2] = tested on: adult zebrafish brain (telencephalic hemispheres); experiment: Relative fluorescence levels in the telencephalic hemispheres after CVMI (surface plots); settings: CVMI 100 μM, Fast-Red staining of cryosections, compared to control PolyD
Method: as §1, §2
(§3) Stainings were performed as previously described in [36, 43]. Yet after the first washing step a 6 min citrate buffer treatment at 85°C was done. […]
(§4) Images were acquired using an inverted Zeiss AxioImager Z1. Only sections between the caudal end of the olfactory bulb and anterior commissure were counted. The quantification of the average translocation range was done using the AxioVision free hand surface area measurement tool. The area showing anti-fluorescein staining in the left hemisphere was measured against the total this telencephalic hemisphere, based on color thresholds against control images. […]

[3] = tested on: adult zebrafish brain (ventricular progenitor cells); settings: CVMI 200 μM, PCNA IHC
Method: as §1, §2, §3, §4

[4] = tested on: adult zebrafish brain (telencephalon); experiment: L-Plastin immunohistochemistry for immune response (leukocytes/microglia) after peptide CVMI; settings: CVMI at 150 μM and 200 μM, n = 4
Method: as §1, §2, §3, §4

[5] = tested on: adult zebrafish brain (telencephalic hemisphere); experiment: Peptide translocation area in the telencephalon after CVMI (fluorescein IHC); settings: 5(6)-carboxyfluorescein-labelled peptide, fluorescein IHC at 1 dpi, n = 3, mean ± s.e.m.
Method: as §1, §2
Stainings were performed as previously described in [36, 43]. Yet after the first washing step a 6 min citrate buffer treatment at 85°C was done. Primary antibodies were sheep anti-fluorescein AP (1:4000, Roche), mouse anti-PCNA (1:500, Dako Cyto) and rabbit anti L-Plastin (Lcp1, 1:7500, a kind gift from Michael Redd, University of Utah, Salt Lake City, UT, USA), they were diluted in PBS. They were incubated at 4°C overnight and secondary antibodies for 30 min at room temperature. Secondary antibodies were Alexa anti-rabbit and anti-mouse 488, 555 (1:500, Molecular probes). FastRed stainings were carried out using Fast Red TR/Naphtol AS-MX tablets (Sigma), according to manufacturer's instructions. Lastly sections were washed using PBSTx and mounted. All immunohistochemical stainings were done on at least five individuals.
as §4

[6] = injection concentration 100 μM, stained area vs total hemisphere

Substance	number of TUNEL-positive (apoptotic) cells ([1]; CVMI 200 μM, 1 dpi, per telencephalic hemisphere per section, n = 3)	increase in number of TUNEL-positive cells compared to a stabbed hemisphere ([1]; CVMI 200 μM, 1 dpi, stab-lesioned hemisphere 27 ± 4 TUNEL-positive cells)	cell death response (TUNEL-positive cells) compared to PolyD control ([1]; CVMI at 150 μM and 200 μM, statistically significant, n = 4)	relative fluorescence levels in the telencephalic hemispheres (level of peptide translocated to deep tissues) [2]	decrease in proliferating cells compared to control and PolyR injected brains [3]	immune response (L-Plastin-positive cells) compared to PolyD control [4]	average area of peptide translocation in one telencephalic hemisphere [5, 6]	average area of peptide translocation in one telencephalic hemisphere ([5]; injection concentration 200 μM)
Transportan	statistically significant and dramatic increase in apoptotic cells	3 fold	increased levels of TUNEL-positive cells	significantly elevated levels of penetration	~50%	increased numbers of immune cells	70 ± 4%	58 ± 6%
Antennapedia [Antp]	–	–	–	–	–	–	did not show any penetration	–
